# Source: US6740636B2 (priority 2000, dated 2004)
# Legend:
# [1] = tested on: recipient Lewis rats given donor ACI rat grafts; assay: Heterotopic heart transplant rejection model (ACI donor, Lewis recipient); assay type: in vivo; conditions: antagonist only, 50 mg/kg s.c. three times per day in 40% cyclodextrin; vehicle 6.8±0.8 days; p=0.0048 vs control
# Excerpt: In this assay an increase in allograft survival time corresponds to a decrease in heart transplant rejection in the recipient Lewis rats given donor ACI rat grafts.
# Adult male, specific pathogen-free ACI (RT1a) and Lewis (RT1l) rats (Charles River, Boston, Mass.) weighing 200 to 250 g were used as donors and recipients, respectively, in these studies. Vascularized cardiac allografts were heterotopically transplanted into the abdomen of recipient rats using a modification (Nisco, S. et al., (1994), supra) of the technique of Ono and Lindsay (Ono, K. et al., (1969), supra). […] Abdominal allografts were palpated on a daily basis to assess graft function, and rejection was deemed complete when palpable ventricular contractions ceased.
# The transplanted hearts were evaluated daily for signs of rejection over the course of the study.
# [2] = tested on: adhesion of monocytes to IL-1β-activated microvascular endothelial cells
structure (smiles),measurement,setting,value
C[C@@H]1CN(Cc2ccc(F)cc2)CCN1C(=O)COc1ccc(Cl)cc1NC(N)=O [(2R)-1-((4-chloro-2-(ureido)phenoxy)methyl)carbonyl-2-methyl-4-(4-fluorobenzyl)piperazine],mean allograft survival time,[1],8.8±1.2 days
same,RANTES-mediated and shear-resistant adhesion of monocytes to IL-1β-activated microvascular endothelial cells,"[2]; human blood monocytes pre-incubated 10 minutes at 37° C., 1.5 dyn/cm^2",dose-dependently inhibited
same,percentage of monocytes that undergo rolling or maintain rolling interactions (inverse measure for monocyte arrest),"[2]; human blood monocytes, last 30 second interval of five minute period",dose-dependently inhibited
